# Measured affinities in a library of Ab-14 light chain variants

All variants were tested on one target, the spike HR2 peptide PDVDLGDISGINAS (SARS-CoV-2).

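Phage display of a naive human antibody library on the peptide gave the parent. In library AAYL50, one, two or three CDR residues were substituted; doubles and triples were drawn at random. The assay is AlphaSeq: two haploid yeast populations carry antibody and antigen on their surface. Binding brings cells together so that they mate, and sequencing counts the barcode pairs among the diploids. A regression on co-assayed BCL2-family reference pairs converts the normalised counts of each replicate to an apparent Kd. There are three technical replicates.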

The variants keep the heavy chain, the linker and the frameworks of Ab-14 (scFv order VH, three GGGGS repeats, VL).
VH: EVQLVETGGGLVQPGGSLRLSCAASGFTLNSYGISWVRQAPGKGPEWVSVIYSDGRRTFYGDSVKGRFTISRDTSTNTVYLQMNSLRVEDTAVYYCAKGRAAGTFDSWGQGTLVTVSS
VL: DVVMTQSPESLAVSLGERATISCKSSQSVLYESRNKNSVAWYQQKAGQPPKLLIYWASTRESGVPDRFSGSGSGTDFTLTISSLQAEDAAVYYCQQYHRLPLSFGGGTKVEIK

Each variant's VL is given in full.
Numbers give log10(Kd / nM), so 0 is 1 nM and 3 is 1 µM. Smaller is tighter.
Averages over replicates are reported, and they cover detected replicates only.
A pair that was not seen in that replicate is written "ND"; this usually means weak binding, but a binder can also be missed.
Empty control strains, which show no peptide, gave a signal in 18% of pairings with library AAYL50; the median was 4.19 and 95% of these signals were weaker than 2.99. No background was subtracted.

log10 Kd, replicates | mean log10 Kd (nM) | VL
ND / ND / ND | ND | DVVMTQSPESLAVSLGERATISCKSSQYVLYESRNKNSVAWYQQKAGQPPKLLIYWASARESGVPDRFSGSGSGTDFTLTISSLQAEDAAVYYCQTYHRLPLSFGGGTKVEIK
ND / ND / ND | ND | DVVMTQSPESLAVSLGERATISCKSSCSVLYESVNKNSVAWYQQKAGQPPKLLIYWASTRESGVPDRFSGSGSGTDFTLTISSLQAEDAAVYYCQQYHRLPESFGGGTKVEIK
2.10 / 2.24 / 2.28 | 2.21 | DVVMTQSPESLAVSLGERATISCKSSQSILYESYNKNSVAWYQQKAGQPPKLLIYWASTRESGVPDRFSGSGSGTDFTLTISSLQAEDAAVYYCAQYHRLPLSFGGGTKVEIK
1.19 / 1.11 / 1.28 | 1.19 | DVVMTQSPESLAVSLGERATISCKMSQSVLYESRNKNSVAWYQQKAGQPPKLLIYWASTREEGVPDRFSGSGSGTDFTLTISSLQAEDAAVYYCQQYHRSPLSFGGGTKVEIK
ND / ND / ND | ND | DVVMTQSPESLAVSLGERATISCKSTQSVLYESRNKVSVAWYQQKAGQPPKLLIYWASTREGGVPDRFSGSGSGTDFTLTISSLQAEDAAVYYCQQYHRLPLSFGGGTKVEIK
1.50 / 1.55 / 1.45 | 1.50 | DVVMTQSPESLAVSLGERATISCKSSQSVLYESRNKNSVAWYQQKAGQPPKLLIYWANTRESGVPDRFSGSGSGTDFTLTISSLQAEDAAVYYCQQYHNLPLSFGGGTKVEIK
5.53 / ND / ND | 5.53 | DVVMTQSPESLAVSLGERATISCKSSQSVLYESRNKNWDAWYQQKAGQPPKLLIYWASTREHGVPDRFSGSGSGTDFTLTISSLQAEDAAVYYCQQYHRLPLSFGGGTKVEIK
1.53 / 1.44 / 1.77 | 1.58 | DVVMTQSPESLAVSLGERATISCKSSQSILYESRNKNSVAWYQQKAGQPPKLLIYWANTRESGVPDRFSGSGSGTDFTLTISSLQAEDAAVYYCQQYPRLPLSFGGGTKVEIK
1.11 / 1.06 / 1.44 | 1.20 | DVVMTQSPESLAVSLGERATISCKMSNSVLYFSRNKNSVAWYQQKAGQPPKLLIYWASTRESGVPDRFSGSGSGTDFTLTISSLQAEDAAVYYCQQYHRLPLSFGGGTKVEIK
1.71 / 2.33 / 2.07 | 2.04 | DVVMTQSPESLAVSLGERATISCMSSQSVLYKSREKNSVAWYQQKAGQPPKLLIYWASTRESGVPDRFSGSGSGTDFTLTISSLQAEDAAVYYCQQYHRLPLSFGGGTKVEIK
1.53 / 1.79 / 1.92 | 1.75 | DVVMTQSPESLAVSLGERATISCKSSQGVLYESRNKNNVAWYQQKAGQPPKLLIYWASTRESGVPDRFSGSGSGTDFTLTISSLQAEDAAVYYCIQYHRLPLSFGGGTKVEIK
ND / 5.64 / ND | 5.64 | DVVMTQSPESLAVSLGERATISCKSSQSVLYESRNKGSVAWYQQKAGQPPKLLIYWISTRESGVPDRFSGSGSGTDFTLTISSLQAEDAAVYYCQQYHRDPLSFGGGTKVEIK
ND / ND / ND | ND | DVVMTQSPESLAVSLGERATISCKSSQSVLYLSRNKNSVAWYQQKAGQPPKLLIYWASTRKSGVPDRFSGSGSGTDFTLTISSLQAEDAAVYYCQQYHQLPLSFGGGTKVEIK
0.97 / 1.11 / 1.19 | 1.09 | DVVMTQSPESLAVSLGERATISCKSSQSVLLESRNKNCVAWYQQKAGQPPKLLIYWASARESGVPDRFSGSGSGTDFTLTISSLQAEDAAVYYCQQYHRLPLSFGGGTKVEIK
5.15 / ND / ND | 5.15 | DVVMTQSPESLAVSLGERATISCKSSQSVLMESRNKNSVAWYQQKAGQPPKLLIYWASTRESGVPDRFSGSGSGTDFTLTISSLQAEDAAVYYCTQYHRNPLSFGGGTKVEIK
3.49 / 3.34 / 2.88 | 3.24 | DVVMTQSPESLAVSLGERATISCKSSQSVLYPSRNKNSYAWYQQKAGQPPKLLIYWASTRSSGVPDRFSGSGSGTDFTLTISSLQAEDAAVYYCQQYHRLPLSFGGGTKVEIK

The first 3 entries again:

VL | log10 Kd, replicates | mean log10 Kd (nM)
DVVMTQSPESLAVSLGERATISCKSSQYVLYESRNKNSVAWYQQKAGQPPKLLIYWASARESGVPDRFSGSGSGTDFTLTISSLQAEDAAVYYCQTYHRLPLSFGGGTKVEIK | ND / ND / ND | ND
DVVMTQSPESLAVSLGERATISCKSSCSVLYESVNKNSVAWYQQKAGQPPKLLIYWASTRESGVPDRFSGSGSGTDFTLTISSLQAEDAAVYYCQQYHRLPESFGGGTKVEIK | ND / ND / ND | ND
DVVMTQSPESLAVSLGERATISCKSSQSILYESYNKNSVAWYQQKAGQPPKLLIYWASTRESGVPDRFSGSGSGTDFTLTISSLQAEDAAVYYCAQYHRLPLSFGGGTKVEIK | 2.10 / 2.24 / 2.28 | 2.21

From the AlphaSeq antibody data of Engelhart et al. 2022 (doi:10.1038/s41597-022-01779-4), copy in the FLAb collection.